The values below come from publication PMC5653858, “A single extracellular amino acid in Free Fatty Acid Receptor 2 defines antagonist species selectivity and G protein selection bias” (Scientific Reports, 2017).

Protein sequences, listed by entry. Tags and fused reporters are not part of them.
UniProt Q8VCK6, whole entry R65K: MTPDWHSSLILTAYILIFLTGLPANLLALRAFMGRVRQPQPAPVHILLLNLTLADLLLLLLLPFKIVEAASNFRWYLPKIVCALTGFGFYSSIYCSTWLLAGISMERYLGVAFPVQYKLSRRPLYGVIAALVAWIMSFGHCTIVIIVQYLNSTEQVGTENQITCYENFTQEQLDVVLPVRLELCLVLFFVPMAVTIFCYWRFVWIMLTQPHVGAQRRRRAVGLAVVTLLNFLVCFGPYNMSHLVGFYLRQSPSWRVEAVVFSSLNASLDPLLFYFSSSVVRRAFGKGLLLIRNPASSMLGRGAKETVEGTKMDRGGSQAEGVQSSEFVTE

The target in the experiment is Arg^65Lys mFFA2 (Mus musculus, UniProt Q8VCK6, R65K). Description: [3H]GLPG0974 radioligand binding assay, Arg65Lys mFFA2. Particulars: tested as the radiolabelled form.

For orientation: Kd means the concentration at which binding is half-saturated.

`C[C@]1(C(=O)N(CCCC(=O)O)Cc2cccc(Cl)c2)CCN1C(=O)c1csc2ccccc12`: the “affinity at Arg65Lys mFFA2 lower than for wild type hFFA2” value was found to be 7 fold. Besides, where the note is “read-out: Kd at Arg65Lys mFFA2, saturation binding, membranes”, the dissociation constant Kd is 0.051 µM.
